The source made the active and inactive calls. No cut-off for these calls is given here.
Target: Soluble guanylate cyclase alpha1/beta1 complex (Homo sapiens) (UniProt Q02153+Q02108)
Assay: Binding affinity to sGC subunit alpha-1/beta-1 catalytic domain (unknown origin) assessed as additive binding at 100 uM after 30 seconds by SPR analysis in presence of GTP
Type: protein-complex assay

Amino acid sequences for entries named in this document (tags omitted). A change or cut given only in a name is not applied to a line headed by its entry.
UniProt Q02153: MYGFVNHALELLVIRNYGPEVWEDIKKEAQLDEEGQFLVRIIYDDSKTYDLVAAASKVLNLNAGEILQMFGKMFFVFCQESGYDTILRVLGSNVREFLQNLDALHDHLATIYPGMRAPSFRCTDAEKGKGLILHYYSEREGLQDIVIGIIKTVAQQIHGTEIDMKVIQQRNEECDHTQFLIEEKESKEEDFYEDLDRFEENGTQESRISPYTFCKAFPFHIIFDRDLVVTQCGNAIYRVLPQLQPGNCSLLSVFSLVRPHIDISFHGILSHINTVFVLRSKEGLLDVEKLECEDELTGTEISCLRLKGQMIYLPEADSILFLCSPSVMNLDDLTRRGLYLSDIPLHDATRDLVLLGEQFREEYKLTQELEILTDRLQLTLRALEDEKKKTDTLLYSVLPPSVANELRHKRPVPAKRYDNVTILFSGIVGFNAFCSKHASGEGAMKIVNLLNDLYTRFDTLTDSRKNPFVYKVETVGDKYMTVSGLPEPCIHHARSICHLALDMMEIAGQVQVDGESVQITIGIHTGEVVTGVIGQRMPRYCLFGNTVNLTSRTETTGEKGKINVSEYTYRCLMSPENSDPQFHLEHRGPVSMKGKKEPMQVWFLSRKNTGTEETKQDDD
UniProt Q02108: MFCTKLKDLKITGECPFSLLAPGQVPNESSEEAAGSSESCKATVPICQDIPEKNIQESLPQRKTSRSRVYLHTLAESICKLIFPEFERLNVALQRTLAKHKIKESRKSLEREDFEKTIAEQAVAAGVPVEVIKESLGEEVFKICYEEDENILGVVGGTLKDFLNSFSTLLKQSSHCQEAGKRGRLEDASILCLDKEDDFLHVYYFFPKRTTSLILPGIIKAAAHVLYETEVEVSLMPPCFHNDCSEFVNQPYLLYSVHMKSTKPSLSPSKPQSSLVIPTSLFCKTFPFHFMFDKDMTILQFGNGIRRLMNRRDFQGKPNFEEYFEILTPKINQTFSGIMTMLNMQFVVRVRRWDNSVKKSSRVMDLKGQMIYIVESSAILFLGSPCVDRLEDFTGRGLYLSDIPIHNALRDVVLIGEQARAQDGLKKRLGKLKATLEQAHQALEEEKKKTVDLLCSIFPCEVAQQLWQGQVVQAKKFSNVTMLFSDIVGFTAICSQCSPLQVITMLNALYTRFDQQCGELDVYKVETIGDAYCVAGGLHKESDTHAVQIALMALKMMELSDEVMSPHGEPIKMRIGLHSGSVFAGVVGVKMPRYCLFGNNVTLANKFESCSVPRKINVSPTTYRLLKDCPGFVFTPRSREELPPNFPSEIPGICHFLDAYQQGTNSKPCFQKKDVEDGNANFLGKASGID

For `OCc1ccc(-c2nn(Cc3ccccc3)c3ccccc23)o1`, the Activity was “Active”.

— ChEMBL document CHEMBL3112547, “Surface plasmon resonance using the catalytic domain of soluble guanylate cyclase allows the detection of enzyme activators” (Bioorg Med Chem Lett, 2014)
